From PubChem
A selection: hits, their analogues and other compounds. The true share with any hit is near 1.4%.
KCNH2 3.1 inh – qHTS for Inhibitors of KCHN2 3.1: Mutant qHTS; AID 720553, 2013; actives 0.95% (n = 340,000); U2OS KCNH2 3.1, thallium flux FluxOr; active compounds read low; Potassium voltage-gated channel subfamily H member 2, brain isoform KCNH2 3.1 (human); activity change, % (tested at about 1.8 µM);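 active = maximum activity change below -70%; inconclusive = maximum activity change from -70% to -50%; inactive = maximum activity change above -50%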;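 note: thallium influx rate constant from kinetic fluorescence after stimulation buffer; % is set by controls: 0 for no effect and ±100 for the full control effect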
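Thallium flux read-out: FluxOr dye with Red40 quencher in HBSS/HEPES, 45 min at RT. Rate constants from kinetic reads were normalized to positive and negative DMSO controls. Cells: U2OS virally expressing the 3.1 isoform.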
Rango release inh – qHTS Assay for Inhibitors of RanGTP induced Rango (Ran-regulated importin-beta cargo) - Importin beta complex dissociation; Snurportin-1 (Homo sapiens) + GTP-binding nuclear protein Ran (Homo sapiens) + Importin …; Biochemical FRET Rango-importin beta, RanGTP-induced dissociation; Potency, µM (top dose mostly 46.1 µM), without a hit: top-dose activity change, negative = inhibition; actives 0.071% (n = 340,000); AID 540253, 2011; note: potency is the fitted concentration of half-maximal effect; % of control where 0% means no effect; nearly all actives have a fitted effect of over 45% in size
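Rango/importin beta premix (0.1/0.25 uM final), PBS + 1 mM DTT + 0.02% Tween-20 + 0.1% BSA; cpd 5 min RT; FRET pre-read; + RanGTP-RCC1 (0.6 uM Ran, 2 mM GTP, 0.2 uM RCC1); 45 min RT; FRET post-read, ex 430, em 486/530 nm.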
KCNH2 WT inh – qHTS for Inhibitors of KCHN2 3.1: Wildtype qHTS; U2OS, BacMam KCNH2, thallium flux FluxOr; active compounds read low; activity change, % at 1.84 µM; actives 0.37% (n = 340,000);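 active = maximum activity change below -70%; inconclusive = maximum activity change between -70% and -50%; inactive = maximum activity change above -50%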; note: % is set by controls: 0 for no effect and ±100 for the full control effect
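U2OS cells transduced with wild-type KCNH2 virus are loaded with FluxOr dye for 45 min, and thallium flux is measured in kinetic reads before and after stimulation buffer. Rate constants are normalized to DMSO controls.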
Rango-impB inh – qHTS Assay for Inhibitors of Rango (Ran-regulated importin-beta cargo) - Importin beta complex formation. actives 0.031% (n = 340,000). Importin subunit beta-1 (Homo sapiens), Q14974. Potency, µM (series often up to 92.2 µM), without a hit: at the highest dose inhibition of complex formation. Rango CFP/YFP FRET sensor + importin beta, 45 min;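 note: potency is the fitted concentration of half-maximal effect; 0% = DMSO wells and 100% = buffer wells lacking importin beta; nearly all actives have a fitted effect of over 15% in size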
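FRET biosensor Rango (snurportin 1 IBB between N-terminal EYFP and C-terminal Cerulean), 50 nM in PBS/1 mM DTT/0.02% Tween-20/0.1% BSA, preincubated 5 min RT with compound; 0.125 microM importin beta added, 45 min RT, CFP/YFP FRET ratio read.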
Mm-Cpn inhibitor – Inhibitors of TCP-1 ring complex (TRiC) of Methanococcus maripaludis (MmCpn): qHTS. Chaperonin Mm-Cpn (Methanococcus maripaludis). AID 504842, 2011. purified Mm-Cpn ATPase, ADP Transcreener TR-FRET. Potency, µM (series often up to 76.9 µM), for the others: top-dose activity, negative = inhibition, most hits filed as inhibitors. actives 0.031% (n = 330,000); active = well fitted inhibition curve with a large enough effect; inconclusive = small, poorly fitted or top-dose-only effect; note: potency is the fitted concentration of half-maximal effect; % is set by controls: 0 for no effect and ±100 for the full control effect; nearly all actives have a fitted effect of over 80% in size
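ATP (10 uM final) was added to archaeal chaperonin (25 nM final) after 10 min exposure to test compound at 37°C; after 30 min further incubation, ADP was detected by competitive TR-FRET.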
CCT modulator – High-Throughput Screening for Modulators of Cytosolic Chaperonin Activity; purified chaperonin ATPase assay, HTRF ADP detection, 30 min; activity change, % (no concentration beside the values), hits read low; actives 0.3% (n = 360,000); AID 651819, 2012; in the data active = activity change below about -30%; note: % is set by controls: 0 for no effect and ±100 for the full control effect
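First, chaperonin was dispensed at 40 nM or 20 nM final depending on batch activity. Next, compounds were pinned at 76 uM and ATP added at 10 uM. After 30 min at 37 °C, ADP detection reagents ran 30 min at ambient temperature.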
Numbers without * were called inactive; ? = inconclusive; · = not tested or not shown. Unless noted, calls come from the whole dose curve.

Chains of the proteins cited; added tags and fusions are not shown.
Importin subunit beta-1 (Homo sapiens), Q14974, UniProt Q14974, whole entry, looked up: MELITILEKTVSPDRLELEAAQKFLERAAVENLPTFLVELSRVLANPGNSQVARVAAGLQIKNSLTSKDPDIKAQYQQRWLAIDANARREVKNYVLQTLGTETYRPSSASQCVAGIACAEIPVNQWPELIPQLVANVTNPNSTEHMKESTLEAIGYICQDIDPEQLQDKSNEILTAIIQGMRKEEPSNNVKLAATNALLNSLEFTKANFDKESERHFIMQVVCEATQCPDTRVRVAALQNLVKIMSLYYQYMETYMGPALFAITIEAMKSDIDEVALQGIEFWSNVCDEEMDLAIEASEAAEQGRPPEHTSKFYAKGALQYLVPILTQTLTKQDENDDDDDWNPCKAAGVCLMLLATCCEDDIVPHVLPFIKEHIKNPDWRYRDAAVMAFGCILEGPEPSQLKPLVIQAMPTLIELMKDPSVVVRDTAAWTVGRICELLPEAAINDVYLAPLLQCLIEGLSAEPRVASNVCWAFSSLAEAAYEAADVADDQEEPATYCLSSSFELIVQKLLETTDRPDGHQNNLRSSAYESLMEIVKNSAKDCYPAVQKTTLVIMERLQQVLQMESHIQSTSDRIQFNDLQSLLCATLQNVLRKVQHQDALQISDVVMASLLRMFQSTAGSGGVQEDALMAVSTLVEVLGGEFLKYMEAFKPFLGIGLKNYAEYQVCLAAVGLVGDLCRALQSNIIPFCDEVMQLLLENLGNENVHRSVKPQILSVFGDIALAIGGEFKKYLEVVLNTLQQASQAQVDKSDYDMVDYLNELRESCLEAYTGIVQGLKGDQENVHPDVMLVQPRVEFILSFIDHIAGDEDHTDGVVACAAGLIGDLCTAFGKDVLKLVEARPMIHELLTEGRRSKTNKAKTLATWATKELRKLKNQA

SMILES	KCNH2 3.1 inh	Rango release inh	KCNH2 WT inh	Rango-impB inh	Mm-Cpn inhibitor	CCT modulator
Cc1ccc(CN2CC(C(=O)N3CCN(S(=O)(=O)c4ccc(C(C)C)cc4)CC3)CC2=O)cc1 (centres undefined)	-79*	3%	3	-3%	1%	-1
Cc1ccc(CN2CC(C(=O)N3CCN(S(=O)(=O)c4cc(C)ccc4C)CC3)CC2=O)cc1 (centres undefined)	0	7%	-9	5%	-1%	-1
CN1CCCN(C(=O)CNC(=O)c2ccccc2Br)CC1	-6	-6%	-5	-1%	-2%	0
CC1C(=O)C(C)C(c2ccc([N+](=O)[O-])cc2)NC1c1ccc([N+](=O)[O-])cc1 (centres undefined)	?	-14%	3	-9%	1%	-5
CC1C(=O)CC(c2ccc([N+](=O)[O-])cc2)NC1c1ccc([N+](=O)[O-])cc1 (centres undefined)	-71*	9%	-22	-1%	4%	0
CCOc1cc(/C=C2/NC(=O)NC2=O)cc(Br)c1OCc1ccc(C(=O)O)cc1	-21	-1%	0	7%	-2%	1
Cc1cccc(Cc2nnc(CCC(=O)N(C)CCc3ccccc3)o2)c1	1	10%	-6	21µM*	-6%	-2
O=C(OCC(=O)N1CCOCC1)c1ccc(Br)cc1	10	31%	-130*	0%	2%	-4
Cc1ccc(C(=O)OCC(=O)N2CCOCC2)cc1	?	-1%	-2	2%	-1%	0
Nc1cc(OC(=O)c2cccs2)nn1S(=O)(=O)c1ccc(F)cc1	-212*	15%	5	0%	1%	-3
CC1CCN(CCCn2c(=S)[nH]c3ccccc3c2=O)CC1	-15	-11%	17	1%	-3%	0
O=c1c2ccccc2[nH]c(=S)n1CCCN1CCC(Cc2ccccc2)CC1	-76*	-5%	-14	0%	0%	-1
CSc1ccc(/C=N/NC(=O)CN2CCN(Cc3ccc(C)cc3)CC2)cc1	-113*	11%	-47	0%	0%	-3
O=C(CN1CCCCCC1)N/N=C/c1ccc(Cl)c(Cl)c1	-75*	0%	-1	-3%	1%	0
CSc1ccc(/C=N/NC(=O)CN2CCN(Cc3ccccc3Cl)CC2)cc1	-82*	3%	29	1%	2%	0
COc1ccccc1-n1cnc2sc(C)c(C)c2c1=O	5	-5%	5	-1%	-2%	-94*
CSCc1cc(N(C)c2ccccc2)nc(-c2ccccc2)n1	37	5%	4	-1%	1%	3
CCOc1ccc(CCNC(=O)CCCn2c(=O)c3cccn3c3cccnc32)cc1OCC	12	1%	-8	-1%	2%	-86*
COc1ccc(CCNC(=O)CCCn2c(=O)c3cccn3c3cccnc32)c(OC)c1OC	15	-8%	2	2%	-8%	-3
Cc1cc(C)n(-c2nc(NCC(C)O)c3c4c(sc3n2)COC(C)(C)C4)n1 (centres undefined)	3	0%	18	-5%	-2%	-1
Cc1cc(C)n(-c2nc(SCCN(C)C)c3c4c(sc3n2)COC(C)(C)C4)n1	-137*	5%	?	3%	0%	-2
O=C(NCCC(=O)N1CCCC(C(F)(F)F)C1)c1ccccc1Cl (centres undefined)	9	-17%	7	3%	-5%	-4
NC(=S)NN=C1c2ccccc2-c2c(F)c(F)c(F)c(F)c21	3	1%	-1	73µM*	·	1
N#Cc1cccc2c1-c1ccccc1/C2=N/NC(N)=S	-7	-8%	4	1%	-1%	-1
COc1ccc(OCC(=O)c2c[nH]c3ccccc23)cc1	9	17%	8	1%	-2%	4
CCN1CCN(C(c2ccc(OC)cc2)C(O)C(=O)c2c[nH]c3ccccc23)CC1 (centres undefined)	-99*	-4%	-104*	0%	-2%	-3
CCOc1ccccc1N(CC(=O)N1CCN(Cc2ccccc2)CC1)S(=O)(=O)c1ccccc1	7	·	-3	·	·	-3
Cc1cccc([C@@H](NC(=O)OC(C)(C)C)C(=O)OC(C)(C)C)c1	27	17%	0	-3%	2%	0
CC(C)(C)OC(=O)N[C@@H](C(=O)OC(C)(C)C)c1ccccc1	-86*	3%	-9	-1%	-5%	-8
CCN1CCN(c2nc3sc4c(c3c(=O)n2-c2ccc(OC)cc2)CCCCC4)CC1	-71*	-6%	0	2%	1%	-3

Fetched by compound from the entries so far (3):
SMILES	KCNH2 3.1 inh	Rango release inh	KCNH2 WT inh	Rango-impB inh	Mm-Cpn inhibitor	CCT modulator
CCN1CCN(c2nc3sc4c(c3c(=O)n2-c2ccc(OC)cc2)CCCCC4)CC1	-71*	-6%	0	2%	1%	-3
Cc1cc(C)n(-c2nc(SCCN(C)C)c3c4c(sc3n2)COC(C)(C)C4)n1	-137*	5%	?	3%	0%	-2
CCOc1ccc(CCNC(=O)CCCn2c(=O)c3cccn3c3cccnc32)cc1OCC	12	1%	-8	-1%	2%	-86*

Returning to the listing with the three entries that preceded the break.
SMILES	KCNH2 3.1 inh	Rango release inh	KCNH2 WT inh	Rango-impB inh	Mm-Cpn inhibitor	CCT modulator
Cc1cccc([C@@H](NC(=O)OC(C)(C)C)C(=O)OC(C)(C)C)c1	27	17%	0	-3%	2%	0
CC(C)(C)OC(=O)N[C@@H](C(=O)OC(C)(C)C)c1ccccc1	-86*	3%	-9	-1%	-5%	-8
CCN1CCN(c2nc3sc4c(c3c(=O)n2-c2ccc(OC)cc2)CCCCC4)CC1	-71*	-6%	0	2%	1%	-3
C=CCOC(=O)c1c(C)nc2cc3c(cc2c1C)OCO3	8	5%	10	-2%	-1%	0
CCC1CCC2(CC1)NC(=O)N(CC(=O)N1CCc3ccccc31)C2=O (centres undefined)	-16	-21%	-6	-4%	1%	-2
Brc1ccccc1/C=N/Nc1ccc2ccccc2n1	-42	-6%	3	0%	-2%	-2
Cc1cc(N/N=C/c2ccccc2Br)nc2ccccc12	-82*	-6%	-21	0%	0%	-1
N#Cc1cccc(NC(=O)CSc2ccc3c4c(cccc24)C(=O)c2ccccc2-3)c1	-78*	?	-100*	?	1%	-2
COc1ccc(NC(=O)CSc2ccc3c4c(cccc24)C(=O)c2ccccc2-3)cc1	-8	?	-21	?	?	-3
COc1cc2c(cc1OC)C(c1cc(C)ccc1C)CC(=O)N2 (centres undefined)	6	1%	1	0%	1%	0
CC(=O)N1Cc2[nH]c3ccccc3c2CC1C(=O)O (centres undefined)	-81*	-9%	-11	?	0%	1
COC(=O)C1Cc2c([nH]c3ccccc23)CN1C(C)=O (centres undefined)	-9	-18%	-1	?	-1%	-3
O=C(CCc1nnc2ccc(NCc3ccccc3Cl)nn12)NC1CCCC1	7	15%	-1	-3%	0%	1
O=C(CCc1nnc2ccc(NCc3ccccc3)nn12)NC1CCCC1	-75*	13%	-9	0%	-4%	-3
